Assay: Visual solubility test: components mixed in 30 ml tap water, assessed visually for turbidity, particles in suspension or precipitate
Settings: Table 1 weights in 30 ml tap water, room temperature, hand-stirred 30 seconds to 1 minute

Visual Observations: Dissolved (30 sec)
Substance: Monobasic Sodium Phosphate
